For the assay, the target named is Nitric oxide synthase 1 (Rattus norvegicus, UniProt P29476). Kind of assay: Tested for inhibition of rat brain […] nitric oxide synthase.

Chains of the proteins cited; added tags and fusions are not shown.
UniProt P29476, whole entry: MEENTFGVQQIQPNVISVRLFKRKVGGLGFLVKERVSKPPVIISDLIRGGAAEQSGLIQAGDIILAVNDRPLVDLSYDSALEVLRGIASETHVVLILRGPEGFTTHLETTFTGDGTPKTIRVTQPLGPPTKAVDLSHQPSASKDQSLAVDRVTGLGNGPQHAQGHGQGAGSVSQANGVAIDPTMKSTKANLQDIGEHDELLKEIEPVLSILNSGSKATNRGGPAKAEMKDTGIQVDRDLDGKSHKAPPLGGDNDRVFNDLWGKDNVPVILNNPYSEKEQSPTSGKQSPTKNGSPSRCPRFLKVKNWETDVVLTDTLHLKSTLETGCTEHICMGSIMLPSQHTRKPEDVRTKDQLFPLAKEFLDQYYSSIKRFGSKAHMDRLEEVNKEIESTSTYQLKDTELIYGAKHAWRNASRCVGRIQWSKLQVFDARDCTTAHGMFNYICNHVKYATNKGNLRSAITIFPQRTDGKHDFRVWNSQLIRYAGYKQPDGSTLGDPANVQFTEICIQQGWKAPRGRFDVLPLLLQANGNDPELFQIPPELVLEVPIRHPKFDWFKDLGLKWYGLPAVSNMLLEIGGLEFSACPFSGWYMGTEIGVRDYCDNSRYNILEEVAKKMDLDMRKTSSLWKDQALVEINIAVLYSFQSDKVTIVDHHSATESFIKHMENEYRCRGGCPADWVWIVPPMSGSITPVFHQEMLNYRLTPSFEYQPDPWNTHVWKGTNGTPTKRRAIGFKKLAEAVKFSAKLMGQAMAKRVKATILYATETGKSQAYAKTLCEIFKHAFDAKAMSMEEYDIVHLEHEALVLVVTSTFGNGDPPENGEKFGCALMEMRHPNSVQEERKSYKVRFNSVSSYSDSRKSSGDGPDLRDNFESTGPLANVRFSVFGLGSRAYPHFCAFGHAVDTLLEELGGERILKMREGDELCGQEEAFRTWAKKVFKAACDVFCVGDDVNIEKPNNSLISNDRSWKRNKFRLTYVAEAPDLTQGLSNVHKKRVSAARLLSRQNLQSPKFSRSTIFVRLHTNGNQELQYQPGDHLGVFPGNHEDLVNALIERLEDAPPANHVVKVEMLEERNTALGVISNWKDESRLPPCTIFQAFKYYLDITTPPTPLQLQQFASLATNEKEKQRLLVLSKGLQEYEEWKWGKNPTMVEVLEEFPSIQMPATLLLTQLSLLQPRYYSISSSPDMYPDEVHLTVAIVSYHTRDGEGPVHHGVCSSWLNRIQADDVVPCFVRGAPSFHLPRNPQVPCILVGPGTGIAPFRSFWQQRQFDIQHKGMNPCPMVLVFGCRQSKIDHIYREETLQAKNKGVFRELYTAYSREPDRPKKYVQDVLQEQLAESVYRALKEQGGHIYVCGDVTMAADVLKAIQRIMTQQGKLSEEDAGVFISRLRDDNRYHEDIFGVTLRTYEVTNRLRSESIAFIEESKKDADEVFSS

Broadly, the IC50 is the concentration that gives 50% inhibition. A higher IC50 goes with weaker potency in that assay.

The molecule `CC(=N)NCCC[C@H](N)C(=O)O` [L-NIO] registered an IC50 of 2200 nM.

Values taken from ChEMBL document CHEMBL1127403, “L-N6-(1-iminoethyl)lysine: a selective inhibitor of inducible nitric oxide synthase” (J Med Chem, 1994).
